Measured values as given in US20250115677A1, “Anti-CEA Antibody Drug Conjugates and Methods of Use” (BeiGene Switzerland GmbH, priority 2022, published 2025).

How the values were obtained:
[1] = system: MKN-45 (CEA high expression) tumors; assay: Cell-line derived xenograft (CDX) model, MKN-45; format: in vivo, NCG mice; conditions: MKN-45 CDX
Experimental: (§1) Cell-line derived xenograft (CDX) models using MKN-45 (CEA high expression) (gastric adenocarcinoma), SW-1463 (CEA moderate) (rectal adenocarcinoma), and NCI-H2122 (CEA low) (lung adenocarcinoma) were generated as described below.
(§2) Cells were cultured in RPMI-1640 medium, supplemented with 10% (v/v) fetal bovine serum, 100 U/ml penicillin, and 100 μg/mL streptomycin. On the day of implantation, cells were collected and re-suspended in cold (4° C.) serum-free RPMI-1640 medium. Cell density was adjusted to 2 (MKN-45), 1.5 (SW1463), or 4 (NCI-H2122)×10^7 cells/mL, and the cells were placed on ice prior to inoculation.
(§3) Six- to eight-week-old female mice were purchased and housed in ventilated cages, given food and water ad libitum, and allowed to acclimate for approximately 1 week prior to inoculation. MKN-45, SW-1463, and NCI-H2122 tumors were induced on the right flank by a subcutaneous injection of 2.0 (MKN-45), 3.0 (SW1463), or 8.0 (NCI-H2122)×10^6 cells in NCG, NCG, and Balb/c nude mice, respectively.
(§4) Experiments were performed approximately 2-3 weeks following injection of the cancer cells. For tumor volume measurements, all tumors were measured with calipers and tumor volumes were calculated using the formula V=0.5 (a×b^2), in which “a” is the tumor length and “b” is the tumor width and/or height. […] Animal body weight and tumor volume were measured twice weekly. Data is presented as mean tumor volume f standard error of the mean (SEM). Tumor growth inhibition (TGI) was calculated using the following formula:
(§5) treated Tt=mean tumor volume of a dosing group on Day t treated T0=mean tumor volume of a dosing group on Day 0 vehicle Tt=mean tumor volume of vehicle group on Day t vehicle T0=mean tumor volume of vehicle group on Day 0

MDA-MB-231 cell line = assay: ADC direct cellular killing assay, MDA-MB-231; format: cell-based, human; conditions: 6 days incubation
Experimental: At Day 0, cells were harvested with 0.25% Trypsin-EDTA, plated at 5,000 cells/well (MKN45 or Ls174T) or 2,000 cells/well (NCI-H2122 or MDA-MB-231) in 96-well plates (655090, Greiner), and incubated at 37° C., 5% CO2 overnight. At Day 1, ADCs were added (5× dilution) into plates. The cell and ADC mixture was incubated at 37° C., 5% CO2 for 6 days. Survival cell signaling was collected at Day 6 with 100 μL of detection reagent (G7573, Promega®); the signal was read by Tecan Spark*. Data were analyzed by GraphPad Prism 9.0.0. All of the killing concentrations were duplicated or triplicated. Results are presented for each of MKN45 (Table 22 and FIG. 17), NCI-H2122 (Table 23 and FIG. 18), Ls174T (Table 24 and FIG. 19), and MDA-MB0231 (Table 25 and FIG. 20) cells.

[2] = system: SW-1463 (CEA moderate) tumors; assay: Cell-line derived xenograft (CDX) model, SW-1463; format: in vivo, NCG mice; conditions: SW-1463 CDX
Experimental: as §1, §2, §3, §4, §5

[3] = after 336 hours of incubation
[4] = In vivo DAR quantification by LC-MS; conditions: single i.v. dose 3 mg/kg, Balb/c nude mice, serum
Experimental: A serum sample (from Balb/c nude mice treated with a single i.v. dose of ADC at 3 mg/k, n=3 per group) was processed into payload-conjugated peptides from the heavy chain (HC) and light chain (LC) of the ADC. DAR mass spectra were analyzed to calculate average DAR of each chain, and average DAR of the intact ADC was calculated using the following formula: DAR=(DAR(LC)+DAR(HC))×2.

[5] = system: human patient-derived gastric cancer xenograft; assay: Human patient-derived gastric cancer xenograft (PDX) model; format: in vivo, mice; conditions: for TGI (%) at T24: treatment Day 24, gastric cancer PDX; for tumor growth inhibition (TGI) rate: treatment day 24
Experimental: as §4, §5
All animals tolerated treatment well with no significant body weight decrease or abnormal clinical observations.

[6] = Single-dose PK in non-tumor-bearing mice; conditions: single dose 3 mg/kg i.v., Balb/c nude mice
[7] = after 336 hours of incubation; remark: listed apart in the source
[8] = system: NCI-H2122 (CEA low) tumors; assay: Cell-line derived xenograft (CDX) model, NCI-H2122; format: in vivo, Balb/c nude mice
Experimental: as §1, §2, §3, §4, §5

B1: BGA9962 (conjugate)
heavy: QVQLVQSGAEVKKPGASVKVSCKASGYIFTSYYLHWVRQAPGQGLEWIGYINPQTGKTSYAQKFQGRVTMTRDTSTSTVYMELSSLRSEDTAVYYCAREYGNYNYPLDYWGQGTLVTVSSASTKGPSVFPLAPSSKSTSGGTAALGCLVKDYFPEPVTVSWNSGALTSGVHTFPAVLQSSGLYSLSSVVTVPSSSLGTQTYICNVNHKPSNTKVDKKV[… human IgG1 Fc …]
light: DIQMTQSPSSLSASVGDRVTITCRASENQYGYLAWYQQKPGKVPKLLIYNYKNLVEGVPSRFSGSGSGTDFTLTISSLQPEDVATYYCQHHLGTPYTFGQGTKVEIKRTVAAPSVFIFPPSDEQLKSGTASVVCLLNNFYPREAKVQWKVDNALQSGNSQESVTEQDSKDSTYSLSSTLTLSKADYEKHKVYACEVTHQGLSSPVTKSFNRGEC
anti-tumor efficacy ([1]; 2 mg/kg i.v.): superior anti-tumor efficacy compared to BGA7650 at 1.3 mg/kg and comparable efficacy to BGA7650 at 4 mg/kg | anti-tumor efficacy ([1]; 6 mg/kg i.v.): significantly reduced tumor growth | tumor growth compared to the vehicle group ([1]; i.v.): slowed tumor growth | EC50 (MDA-MB-231 cell line): 27 nM | anti-tumor efficacy ([2]; 2 mg/kg i.v.): superior anti-tumor efficacy compared to BGA7650 at 1.3 mg/kg and comparable efficacy to BGA7650 at 4 mg/kg | anti-tumor efficacy ([2]; 6 mg/kg i.v.): significantly reduced tumor growth | tumor growth compared to the vehicle group ([2]; i.v.): slowed tumor growth | stability in human plasma (DAR change) [3]: no DAR change | in vivo DAR over time [4]: 8 | TGI (%) at T24 ([5]; 2 mg/kg single dose): 106% | TGI (%) at T24 ([5]; 6 mg/kg single dose): 107% | tumor growth inhibition (TGI) rate ([5]; single dose 2 mg/kg): 106% | tumor growth inhibition (TGI) rate ([5]; single dose 6 mg/kg): 107% | separation between TAb (total antibody) and ADC concentration; DAR over time [6]: stable DAR over time | serum-free payload in plasma [6]: lower serum-free payload in plasma compared to BGA7650 | pharmacokinetic (PK) profile ([6]; n=3): strong pharmacokinetic (PK) profile | stability in mouse plasma (DAR change) [7]: no DAR change | anti-tumor efficacy ([8]; 2 mg/kg i.v.): superior anti-tumor efficacy compared to BGA7650 at 1.3 mg/kg and comparable efficacy to BGA7650 at 4 mg/kg | anti-tumor efficacy ([8]; 6 mg/kg i.v.): significantly reduced tumor growth | tumor growth compared to the vehicle group ([8]; i.v.): slowed tumor growth

B2: BGA8357 (conjugate)
heavy: B1 heavy
light: B1 light
EC50 (MDA-MB-231 cell line): 26 nM

B3: BGA0084 (conjugate)
heavy: B1 heavy
light: B1 light
EC50 (MDA-MB-231 cell line): 25 nM

B4: BGA7413 (conjugate)
heavy: B1 heavy
light: B1 light
EC50 (MDA-MB-231 cell line): 28 nM

B5: BGA2490 (conjugate)
heavy: B1 heavy
light: B1 light
EC50 (MDA-MB-231 cell line): 21 nM
